In assay [1] the target is FAAH (Homo sapiens (Human), UniProt O00519). Put plainly: Assay Method 1: human FAAH assay (3H-anandamide hydrolysis in cell homogenate). Type of assay: biochemical. The settings on record: average of results. The procedure: A. Transfection of Cells with Human FAAH
(§1) A 10-cm tissue culture dish with a confluent monolayer of SK-N-MC cells was split 2 days (d) prior to transfection. Using sterile technique, the media was removed and the cells were detached from the dish by the addition of trypsin. One fifth of the cells were then placed onto a new 10-cm dish. Cells were grown in a 37° C. incubator with 5% CO2 in Minimal Essential Media Eagle with 10% Fetal Bovine Serum. After 2 d, cells were approximately 80% confluent. These cells were removed from the dish with trypsin and pelleted in a clinical centrifuge. The pellet was re-suspended in 400 μL complete media and transferred to an electroporation cuvette with a 0.4 cm gap between the electrodes. Supercoiled human FAAH cDNA (1 μg) was added to the cells and mixed. The voltage for the electroporation was set at 0.25 kV, and the capacitance was set at 960 μF. After electroporation, the cells were diluted into complete media (10 mL) and plated onto four 10-cm dishes. Because of the variability in the efficiency of electroporation, four different concentrations of cells were plated. The ratios used were 1:20, 1:10, and 1:5, with the remainder of the cells being added to the fourth dish. The cells were allowed to recover for 24 h before adding the selection media (complete media with 600 μg/mL G418). After 10 d, dishes were analyzed for surviving colonies of cells. […]

Chains of the proteins cited; added tags and fusions are not shown.
UniProt O00519, whole entry: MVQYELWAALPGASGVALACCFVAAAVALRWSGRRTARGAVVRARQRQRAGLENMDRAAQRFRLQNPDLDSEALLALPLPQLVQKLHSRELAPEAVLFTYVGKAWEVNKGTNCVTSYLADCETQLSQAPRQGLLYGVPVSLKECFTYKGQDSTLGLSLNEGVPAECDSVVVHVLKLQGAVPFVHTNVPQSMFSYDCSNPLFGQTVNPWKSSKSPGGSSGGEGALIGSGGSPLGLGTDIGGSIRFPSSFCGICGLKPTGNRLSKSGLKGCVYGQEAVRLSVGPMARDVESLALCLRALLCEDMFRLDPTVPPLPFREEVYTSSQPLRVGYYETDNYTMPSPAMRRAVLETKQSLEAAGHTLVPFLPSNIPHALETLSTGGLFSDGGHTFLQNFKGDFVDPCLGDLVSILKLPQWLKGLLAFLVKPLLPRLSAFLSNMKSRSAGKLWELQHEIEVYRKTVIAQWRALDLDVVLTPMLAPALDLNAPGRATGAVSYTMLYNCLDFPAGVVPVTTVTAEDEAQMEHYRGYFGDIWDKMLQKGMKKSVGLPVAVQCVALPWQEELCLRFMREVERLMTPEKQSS
UniProt P97612, whole entry: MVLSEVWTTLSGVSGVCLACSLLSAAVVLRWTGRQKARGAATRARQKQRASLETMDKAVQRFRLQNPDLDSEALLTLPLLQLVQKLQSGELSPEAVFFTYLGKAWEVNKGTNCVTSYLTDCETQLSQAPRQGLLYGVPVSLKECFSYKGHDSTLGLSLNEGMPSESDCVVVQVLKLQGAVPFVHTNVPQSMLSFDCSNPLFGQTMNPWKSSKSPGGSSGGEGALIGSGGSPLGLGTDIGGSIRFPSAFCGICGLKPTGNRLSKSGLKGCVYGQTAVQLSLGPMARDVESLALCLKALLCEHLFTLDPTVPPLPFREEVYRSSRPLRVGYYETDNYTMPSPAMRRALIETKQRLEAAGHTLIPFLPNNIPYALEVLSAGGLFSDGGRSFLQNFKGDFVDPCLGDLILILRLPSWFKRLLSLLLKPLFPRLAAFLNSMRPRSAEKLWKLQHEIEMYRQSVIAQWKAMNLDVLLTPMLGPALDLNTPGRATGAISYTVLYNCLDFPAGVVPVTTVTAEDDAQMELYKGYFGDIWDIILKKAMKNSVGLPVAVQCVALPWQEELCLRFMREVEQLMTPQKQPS

Assay [2] deals with rat FAAH (Rattus norvegicus (Rat), UniProt P97612). Put plainly: Assay Method 2: rat FAAH assay (3H-anandamide hydrolysis in cell homogenate). Particulars: average of results. Type of assay: biochemical. The procedure: A. Transfection of Cells with Rat FAAH
as §1, with “rat” for “human”

With `O=C(Nc1cccnc1)N1CCN(Cc2ccc3c(c2)OC(F)(F)O3)CC1` [Comparator Compound], the values for the IC50 in assay [1] and in assay [2] were 0.34 µM and 0.45 µM, respectively.

(Values after patent US9688664B2, “Modulators of fatty acid amide hydrolase” (JANSSEN PHARMACEUTICA NV, priority 2010, dated 2017).)
